According to patent US20210309718A1:

Assays:
sFGFR3_Del4-D3 (human) [1] = target: sFGFR3_Del4-D3 (human) (UniProt P22607); assay: SPR (Biacore T200), immobilised sFGFR3_Del4-D3, FGF as analyte, 2:1 (conformational change) model, ka2
sFGFR3_Del4-D3 (human) [2] = target: sFGFR3_Del4-D3 (human) (UniProt P22607); assay: SPR (Biacore T200), immobilised sFGFR3_Del4-D3, FGF as analyte, 2:1 (conformational change) model, kd2

ka2 (sFGFR3_Del4-D3 (human) [1]): 0.03 M⁻¹ s⁻¹ | kd2 (sFGFR3_Del4-D3 (human) [2]): 0.0036 s⁻¹
Substance: human FGF9 (from UniProt P31371 4-208) (ligand)
